## Measured affinities in a library of Ab-14 heavy chain variants

Reference: Li et al. 2023, doi:10.1038/s41467-023-39022-2. File: FLAb, binding data.

All variants were tested on one target, the spike HR2 peptide PDVDLGDISGINAS (SARS-CoV-2).

Ab-14 is the parent antibody, in scFv form: VH, then three GGGGS repeats, then VL. The light chain is unchanged in all variants.
VH: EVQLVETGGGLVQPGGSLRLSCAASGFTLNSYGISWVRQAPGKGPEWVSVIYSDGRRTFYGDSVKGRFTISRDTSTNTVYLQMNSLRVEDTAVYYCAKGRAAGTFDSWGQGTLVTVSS
VL: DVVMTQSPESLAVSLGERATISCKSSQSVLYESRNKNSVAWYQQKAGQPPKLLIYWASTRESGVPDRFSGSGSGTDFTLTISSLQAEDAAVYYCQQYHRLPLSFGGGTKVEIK

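The starting antibody came from a phage panning campaign against this peptide. These sequences belong to a second round, designed from the earlier measurements on random variants of the parent. Several design methods are mixed in this list. The assay is AlphaSeq: two haploid yeast populations carry antibody and antigen on their surface. The frequency of each diploid, read from paired DNA barcodes, reflects how well the two displayed proteins bind. A regression on co-assayed BCL2-family reference pairs converts the normalised counts of each replicate to an apparent Kd. Mating was done six times.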

Each variant is given by its three heavy chain CDRs, as the data file delimits them; those of the parent are GFTLNSYGIS, VIYSDGRRTFYGDSVK, GRAAGTFDS.
Kd is apparent (estimated from mating counts) and averaged on the log scale over replicates with a signal. Smaller is tighter.
"no signal" marks a missing value. The strain was present, yet no cells mated with the target were sequenced in any replicate, which points to weak or no binding.

CDR-H1	CDR-H2	CDR-H3	Kd	replicates with signal	signal with controls
GFDLNEYGIS	VIYADGVRTFYADSVK	GEVAGTFDV	300 pM	6 of 6	1 of 18
GFYLNEYGIS	VIYADGIRSVYANKVK	GNGAGLLDY	7.4 nM	4 of 6	0 of 18
GFTLNMYGIS	VIYSDGQRTFYGDSSK	GRLICTFDS	no signal	0 of 6	0 of 18
GFDLNSYGIS	VIYSDGRRTFYHDSVK	GSAAGTFDS	2.1 nM	6 of 6	0 of 18
GNTLNEYGIS	VIYADGIRTNYSDNVK	GMNGDTFTQ	no signal	0 of 6	0 of 18
GFNLNSYGIS	VIYSDGRRTFYGDSVK	GEAAGTFDN	91 nM	6 of 6	0 of 18
GFDLNEYGIS	VIYADGMRKAYADDVK	GQNAGTFDV	150 pM	6 of 6	0 of 18
GFDLNSYGIS	VIYSDGCRTFYGDSVK	GRTAGTFDS	4.8 nM	6 of 6	0 of 18
GFTLNSYGIH	VIYSDGRRTFYGDSVK	GRAAGTFDS	no signal	0 of 6	2 of 18
GFTLNSYGIS	VIYSDGRRTHYGDSVK	GRLAGTFDS	150 nM	1 of 6	0 of 18
GEDLMEYGIS	VIYADGERISYANSVK	GGVSGNFSS	no signal	0 of 6	3 of 18
GFDLNEYGIS	VIYADGKRTAYADSVK	GNNAGTFDM	200 pM	6 of 6	0 of 18
RFTLNSYGIS	VIYSDGRRTFYIDSVK	GREAGTFDS	no signal	0 of 6	0 of 18
GFDLSEYGIS	VIYADGRRTFYTDSVK	GEEAGTFDE	610 pM	6 of 6	0 of 18
GFTLNSYGIQ	VIYADGFRTFYGDSFK	GRAAGTNKS	no signal	0 of 6	1 of 18
GFSLNDYGIS	VIYSDGRRTFYGDSVK	GQTAGTFDS	370 pM	6 of 6	1 of 18
GFDLNEYGIS	VIYADGMRTYYADSVK	GETAGTFDI	630 pM	6 of 6	2 of 18
GETLNSYGIS	VIYADGRRTFYIDSVK	GRAAGTFDS	4.1 nM	6 of 6	0 of 18
GFTLNSYGVS	VIYRDGRRTFYGDSVK	GRAAGTFLS	no signal	0 of 6	0 of 18
GFLLNEYGIS	VIYSDGRRTFYGDSVK	GRTAGTFDT	1.2 nM	6 of 6	0 of 18
GFTPNDYGIS	VIYSDGRRTFYGDSVK	GRATLTFIS	no signal	0 of 6	0 of 18
GFELNSYGIS	VIYSDGRRTFYADSVK	GEAAGTFDS	3.7 nM	6 of 6	0 of 18
GFWLNEYGIS	VIYSDGRRTFYHDSVK	GRIAGTFDS	5.8 nM	6 of 6	0 of 18
GFDINEYGIS	VIYADGRRTQYADSVK	GEAAGTFDQ	2.8 nM	6 of 6	0 of 18
GFDLDEYGIS	VIYADGQRTFYADSVK	GNVAGTFDT	350 pM	6 of 6	0 of 18
GFTLDSYGIS	VIYSDGRRTFYGDSVK	GRAAGTFTV	no signal	0 of 6	0 of 18
GFTLGSYGIS	VIYSDGRRTFYGDSVK	GRNRGTFDD	no signal	0 of 6	0 of 18
GFTLNSYGIS	VIYSDGIRTFYGDSVK	GRAAGTWDS	67 nM	6 of 6	0 of 18
GFVLNSYGIS	VIYSDGRRTFYGDSVK	GTAAGTFDS	130 nM	6 of 6	1 of 18
GFDLNEYGIS	VIYADGMRKAYADSVK	GQNAGTFDV	no signal	0 of 6	0 of 18
GFDLNEYGIS	VIYADGMRTFYSDSVK	GQTAGTFDE	1.2 nM	6 of 6	0 of 18
GFNLNKYGIS	VIYSDGVRTFYGDSVK	GTAAGTFCS	no signal	0 of 6	1 of 18
GHTPNSYGIS	VIYSDGRRTFYADSVK	GRAAGTFDS	no signal	0 of 6	0 of 18
GFSLNEYGIS	VIYSDGRRTFYGDSVK	GKHAGTFDS	1.4 nM	6 of 6	0 of 18
GFTLNQYGIS	VIYSHGRRTFYSDSVK	GRAAGFFDS	no signal	0 of 6	0 of 18
GFLLNEYGIS	VIYSDGRRTFYGDSVK	GQTAGTFDS	150 nM	6 of 6	0 of 18
GFSLNSYGIS	VIYSDGRRTWYADSVK	GRAAGTFDS	1.8 nM	6 of 6	0 of 18
GFDLNEYGIS	VIYADGMRTSYADSVK	GTNAGTFDV	30 pM	6 of 6	0 of 18
GFDLNEYGIS	VIYADGVRTAYTDSVK	GNVAGTFDI	250 pM	6 of 6	1 of 18
GFSLDEMGIS	VIYADGKRSFYQANVK	GVNSGTFNV	no signal	0 of 6	0 of 18
GFELNDYGIS	VIYSDGRRTFYCDSVK	GRTAGTFDS	47 nM	6 of 6	0 of 18
GFDLNSYGIS	VIYSDGRRTFYVDKVK	GRTAGTFDS	24 nM	4 of 6	0 of 18
GFTLNDYGIS	VIYSDQRRTFYGDSVK	GTAAGTFDS	no signal	0 of 6	0 of 18
GFDLNEYGIS	VIYADGRRTFYIDSVK	GNVAGTFDS	210 pM	6 of 6	0 of 18
GFSLNSYGIS	VIYADGRRTFYGDSVK	GRAAGTFDM	1.3 nM	6 of 6	0 of 18
GFNLESYGIS	VIYSDGRRTFYGDSVK	GNAAGTFDS	8.8 nM	5 of 6	0 of 18
GFTLNDYGIS	VIYSDGRRTMYLDSVK	GRAAGTFDS	17 nM	6 of 6	0 of 18
GFDLDEYGIS	VIYADGKRTAYSDSVK	GEVAGTFDM	720 pM	6 of 6	0 of 18
GFTLNDYCIS	VDYSDGRRTFYGDSDK	GRAALTFIS	no signal	0 of 6	0 of 18
GFDLNEYGIS	VIYADGRRTFYSDKVK	GNEGGTFDI	750 pM	6 of 6	0 of 18
GFDLDEYGIS	VIYADGMRTFYADSVK	GNIAGTFDQ	410 pM	6 of 6	0 of 18
GFNLNEYGIS	VIYADGRRTFYADSVK	GQQAGTFDV	190 pM	6 of 6	1 of 18
GFDLNEYGIS	VIYADGVRTAYSDSVK	GKNAGTFDV	190 pM	6 of 6	0 of 18
GFSLNEYGIS	VIYSDGRRTFYSDQVK	GRTAGTFDS	480 pM	6 of 6	0 of 18
GFTLNDYGIS	VIYSDGRRTFYADSVK	GRMAGTFDS	1.8 nM	6 of 6	0 of 18
GFDLNSYGIS	VIYSDGRRTFYGQSVK	GRAAGWFNS	no signal	0 of 6	1 of 18
GFDLDEYGIS	VIYADGVRKAYADSVK	GEVAGTFDV	240 pM	6 of 6	0 of 18

3 of these entries, quoted again:

CDR-H1,CDR-H2,CDR-H3,Kd,replicates with signal,signal with controls
GFDLNEYGIS,VIYADGMRTYYADSVK,GETAGTFDI,630 pM,6 of 6,2 of 18
GFSLNEYGIS,VIYSDGRRTFYGDSVK,GKHAGTFDS,1.4 nM,6 of 6,0 of 18
GFDLNEYGIS,VIYADGRRTFYIDSVK,GNVAGTFDS,210 pM,6 of 6,0 of 18

The authors' rule: three or more of the six replicates give a measured affinity, fewer mean a poor binder.
A sequence measured in both rounds can read differently, since the two assays cover different ranges.
The parent sequence was in this pool as ten entries: three were never detected, three once, and four in most replicates, with averages from 2.2 nM to 240 nM.
Background: pairings of all heavy chain designs with three empty control strains gave a value in 1% of cases (median 120 nM, 5th percentile 7.0 nM). Values in that range, when seen in few replicates, are hard to tell from nonspecific mating. For each scFv, signals with the empty controls are counted beside the result.